{"source": "patent US11974988B2", "about": "“Neuroprotective compositions and methods of using the same” (The Board of Supervisors of Louisiana State Univer …, priority 2018, dated 2024)", "key": {"[1]": {"tested_on": "activity-regulated Gln/MeAIB transport (SNAT activity) in hippocampal neurons", "assay": "Activity-regulated (spontaneous, 4-AP- or K+-stimulated) [14C]-MeAIB transport in primary hippocampal neurons", "type": "cell-based, rat", "parameters": "block of transport activity: concentration or dose not given beside the values", "settings": "for IC50: read-out: IC50 to inhibit activity-regulated Gln/MeAIB transport"}, "[2]": {"tested_on": "activity-regulated Gln/MeAIB transport (SNAT activity) in hippocampal neurons", "settings": "read-out: IC50 to inhibit activity regulated Gln/MeAIB transport; cited from earlier work"}, "[3]": {"tested_on": "glutamate transporters GLAST, GLT1 and EAAC1", "settings": "read-out: EC50, enhancement of glutamate transporter activity; cited from earlier work"}}, "note": "“And” between values parts separate entries of the source, which are not always exact repeats. Identical values can stand only once. “Also recorded” adds a separate entry of the source. Like-named read-outs stand apart in the source and are kept apart here."}
{"smiles": "Nc1nc2ccc(OC(F)(F)F)cc2s1", "note": "[riluzole]", "values": [{"measurement": "block of 4-AP stimulated 14C-MeAIB transport, in words", "setting": "[1]", "result": "blocked"}, {"measurement": "block of transport activity", "setting": "[1]", "result": "~90", "unit": "%"}, {"measurement": "inhibition of spontaneous activity-regulated 14C-MeAIB transport, in words", "setting": "[1]", "result": "blocked spontaneous transport activity; also recorded: inhibited spontaneous transport activity"}, {"measurement": "potency to block 4-AP stimulated transport less than potency to block spontaneous transport", "setting": "[1]", "result": "~3", "unit": "fold"}, {"measurement": "IC50", "setting": "[1]; Rattus norvegicus, Hippocampal neuron", "result": 1300, "unit": "nM"}, {"measurement": "inhibition at 10 µM", "setting": "[1]; Rattus norvegicus, Hippocampal neuron, read-out: block / inhibition of transport activity", "result": "~90", "unit": "%"}, {"measurement": "IC50", "setting": "[1]", "result": "~1000 nM and 1000 nM"}, {"measurement": "IC50", "setting": "[2]", "result": 1000, "unit": "nM"}, {"measurement": "EC50", "setting": "[3]", "result": "> 100000", "unit": "nM"}]}
